The results in this text go back to PubChem BioAssay AID720709 (National Center for Advancing Translational Sciences (NCATS), 2013).

Chains of the proteins cited; added tags and fusions are not shown.
UniProt O95398, whole entry: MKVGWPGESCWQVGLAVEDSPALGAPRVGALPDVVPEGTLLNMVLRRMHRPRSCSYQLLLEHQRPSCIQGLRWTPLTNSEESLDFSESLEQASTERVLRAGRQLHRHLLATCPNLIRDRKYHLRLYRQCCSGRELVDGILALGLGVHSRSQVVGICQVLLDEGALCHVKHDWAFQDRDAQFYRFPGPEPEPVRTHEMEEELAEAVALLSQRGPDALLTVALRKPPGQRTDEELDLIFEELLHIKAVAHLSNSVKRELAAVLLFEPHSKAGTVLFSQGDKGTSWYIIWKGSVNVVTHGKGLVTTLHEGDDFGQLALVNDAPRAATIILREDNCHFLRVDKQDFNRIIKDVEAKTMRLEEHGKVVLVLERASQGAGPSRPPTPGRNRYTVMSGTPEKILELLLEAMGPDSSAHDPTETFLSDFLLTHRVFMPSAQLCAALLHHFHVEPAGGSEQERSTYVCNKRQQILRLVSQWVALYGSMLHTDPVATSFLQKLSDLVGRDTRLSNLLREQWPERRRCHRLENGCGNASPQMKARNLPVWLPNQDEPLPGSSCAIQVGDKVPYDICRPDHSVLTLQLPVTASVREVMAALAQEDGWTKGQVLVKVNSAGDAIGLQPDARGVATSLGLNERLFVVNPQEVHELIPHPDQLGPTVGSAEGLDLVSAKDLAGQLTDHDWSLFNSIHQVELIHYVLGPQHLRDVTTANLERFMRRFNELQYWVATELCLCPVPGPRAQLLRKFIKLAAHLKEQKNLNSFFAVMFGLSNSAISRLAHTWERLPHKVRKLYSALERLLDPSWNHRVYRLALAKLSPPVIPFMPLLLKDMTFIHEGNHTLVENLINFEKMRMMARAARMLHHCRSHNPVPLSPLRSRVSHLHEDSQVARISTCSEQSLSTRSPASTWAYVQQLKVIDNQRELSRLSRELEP

The list shows a part of the results, in another mix than the full data. Inconclusive results are not listed. Some salts or complexes appear as unconnected parts, following the source record. Activity calls are given as the source filed them. Calls come from the whole dose curve; as a rule, active = well fitted inhibition curve with a large enough effect; inconclusive = small, poorly fitted or top-dose-only effect; inactive = no such curve, though single readings can be large or run the other way.

The experiment addresses Rap guanine nucleotide exchange factor 3 (Homo sapiens) (UniProt O95398). The experiment is described as follows: qHTS for Antagonist of cAMP-regulated guanine nucleotide exchange factor 3 (EPAC1): primary screen. Note: nearly all actives have a fitted effect of over 50% in size. The conditions noted are these: EPAC1 GEF assay, Rap1b-BODIPY-GDP exchange fluorescence; at 115 µM (top of the series). An excerpt:
In multi-cellular eukaryotic organisms, the effects of cAMP are transduced by two ubiquitously-expressed intracellular cAMP receptors, the classic protein kinase A/cAMP-dependent protein kinase (PKA/cAPK) and the more recently discovered exchange protein directly activated by cAMP/cAMP-regulated guanine nucleotide exchange factor (EPAC/cAMP-GEF). Both PKA and EPAC are ubiquitously expressed in all tissues, and an increase in intracellular cAMP levels will lead to the activation of both PKA and EPAC. Therefore, careful dissections of the individual role and relative contribution of EPAC and PKA within the overall cAMP signaling in various model systems are critical for further elucidating the mechanism of cAMP signaling. To date no EPAC-specific antagonists and agonist, as well as isoform-specific agonists have been reported, and developing EPAC-specific pharmacological probes to determine the physiological functions that EPAC play in the overall cAMP-mediated signaling remains a major challenge within the research field. Furthermore, identified regulators of EPAC may lead to new mechanism-based therapeutic strategies specifically targeting the EPAC / cAMP-signaling components as EPAC has been implicated to play important roles in major human pathological conditions such as diabetes, heart disease, and cancer. This qHTS will be used to screen the Molecular Libraries Small Molecule Repository (MLSMR) as a concentration-titration series using the NCGC unique quantitative screening (qHTS) platform to find inhibitors for EPAC1. In addition, this assay will also be used as a counterscreen for the EPAC2 qHTS. This fluorescent based assay is developed and validated for EPAC1 that measures exchange using EPAC effector Rap1 complex with BODIPY-GDP, a GDP analog with a tethered fluorophores. Inhibitors are identified by monitoring the change in fluorescence signal as the exchanged free BODIPY-GDP has a reduced fluorescence compared to Rap1-bound BODIPY-GDP. Decrease in signal (inhibition) is the desired outcome for the EPAC1 antagonist while no activity in this assay is desired for the EPAC2 antagonist counterscreen. de Rooij, J., Zwartkruis, F. J., Verheijen, M. H., Cool, R. H., Nijman, S. M., Wittinghofer, A., and Bos, J.L. (1998) Nature 396, 474-477 [2] Kawasaki, H., Springett, G. M., Mochizuki, N., Toki, S., Nakaya, M., Matsuda, M., Housman, D. E., and Graybiel, A. M. (1998) Science 282, 2275-2279 NIH Chemical Genomics Center [NCGC] NIH Molecular Libraries Probe Centers Network [MLPCN] MLPCN Grant: NS066510 Assay Submitter (PI): Xiaodong Cheng, The University of Texas, Medical Branch
Briefly, three uL of reagents (100 nM EPAC1, 250 nM RAP1B-BODIPY-GDP, 50 uM GDP) were dispensed into a 1536-well Greiner black solid-bottom medium binding assay plate. Controls and test compounds (23 nL) were transferred to the plate via a Kalypsys pin tool equipped with a 1536-pin array. The plates were centrifuged at 1,000 rpm for 15 seconds followed by 5 minute incubation at room temperature. The assay plates were read at 5 minute intervals for 30 minutes in the ViewLux plate reader using 480nm excitation and 540nm emission filters. The results were normalized to the […] positive control ATA and DMSO.
Background: Quantitative high-throughput screening tests each substance at several concentrations.
Turning to `N/C(=N\O)c1c(N)no[n+]1[O-]`, the activity change, negative = inhibition is inactive: 17.1%. As to `O=c1[nH]c2ccccc2n1C1CCN(C(c2cccs2)c2nnnn2C2CCCCC2)CC1` (stereo not given), the activity change, negative = inhibition was inactive: -2.3%. Under `COc1ccc(C(=O)NCC2(N3CCOCC3)CCCCC2)cc1OC` stands inactive: -2%; under `O=c1[nH]c2ccccc2n1C1CCN(C(c2ccnc3ccccc23)c2nnnn2C2CCCC2)CC1` (stereo not given), inactive: -10.5%. With `CCCCn1nnnc1C(c1ccccc1)N1CCC(n2c(=O)[nH]c3ccccc32)CC1` (stereo not given) the figure was inactive: -9.92%; with `COc1cc(C(=O)NCC2(N3CCOCC3)CCCCC2)cc(OC)c1C`, inactive: -7.39%; with `O=C(NCC1(N2CCOCC2)CCCCC1)c1cc(Br)ccc1Cl`, inactive: 3.12%. With `O=[N+]([O-])c1cc([N+](=O)[O-])c(Nc2ccc(Cl)cc2)c([N+](=O)[O-])c1` the figure was inactive: -15.7%. As to `COc1ccc(C(c2nnnn2C2CCCC2)N2CCC(n3c(=O)[nH]c4ccccc43)CC2)cc1` (stereo not given), the activity change, negative = inhibition was inactive: 7.04%. With `Cc1ccc(C(=O)NCC2(N(C)C)CCCCC2)o1` the figure was inactive: 5.44%; with `CCCOc1ccc(C(=O)NCC2(N(C)C)CCCCC2)cc1OC`, inactive: -16.4%. With `O=C(OC1CN2CCC1CC2)c1ccc([N+](=O)[O-])cc1` (stereo not given) the figure was inactive: -1.78%; with `COc1ccc2c(c1O)-c1c(O)c(OC)cc3c1[C@H](C2)[N+](C)(C)CC3.O=[N+]([O-])c1cc([N+](=O)[O-])c([O-])c([N+](=O)[O-])c1[O-]`, inactive: 4.43%.

Consider `O=C(NCC1(N2CCCCC2)CCCCC1)c1cncc(Br)c1`, for which the activity change, negative = inhibition is inactive: 5.79%. Under `CN1CCC(Nc2cccc(F)c2)CC1` stands inactive: -5.56%; under `COc1cc(OC)c(C(=O)NCC2(N(C)C)CCCCC2)cc1OC`, inactive: 18.6%; under `O=C(NCC1(N2CCOCC2)CCCCC1)c1cc(F)c(F)cc1Cl`, inactive: -3.47%. With `CCC(c1nnnn1C(C)(C)C)N1CCC(n2c(=O)[nH]c3ccccc32)CC1` (stereo not given) the figure was inactive: -13.9%. In the case of `CCN(CC)CCCNc1ccccc1[N+](=O)[O-].O=[N+]([O-])c1cc([N+](=O)[O-])c(O)c([N+](=O)[O-])c1`, the activity change, negative = inhibition was inactive: 9.27%.

As to `CCCCn1nnnc1C(c1ccnc2ccccc12)N1CCC(n2c(=O)[nH]c3ccccc32)CC1` (stereo not given), the activity change, negative = inhibition was inactive: -1.28%.

Regarding `CCCCn1nnnc1C(c1ccccc1OC(F)(F)F)N1CCC(n2c(=O)[nH]c3ccccc32)CC1` (stereo not given), the activity change, negative = inhibition is inactive: -17.9%. For the compound `CC(C)c1ccc(NC2CCN(C(=O)OC(C)(C)C)CC2)cc1`, the activity change, negative = inhibition is inactive: -27.6%. Under `COc1ccc(CN(CCCl)CCCl)cc1Cl` stands inactive: 2.56%. Under `O=[N+]([O-])c1cc([N+](=O)[O-])c(OC2CCCCC2O)c([N+](=O)[O-])c1` (stereo not given) stands inactive: -10.7%. On to `CN(C)c1cccc(C(=O)NCC2(N3CCCCC3)CCCCC2)c1`, for which the activity change, negative = inhibition was inactive: 8.94%. Under `COc1cc(C(=O)NCC2(N3CCCCC3)CCCCC2)ccc1OC(F)F` stands inactive: -7.08%; under `O=C(NCC1(N2CCOCC2)CCCCC1)c1cc(=O)[nH]c2ccccc12`, inactive: -6.6%; under `CCCCn1nnnc1C(c1cccc2ccccc12)N1CCC(n2c(=O)[nH]c3ccccc32)CC1` (stereo not given), inactive: -1.51%. Under `CN1CCN(CCOC(=O)C(O)(c2ccccc2)c2ccccc2)CC1` stands inactive: -3.34%; under `CC(C)c1ccc(C(=O)NCC2(N3CCOCC3)CCCCC2)cc1`, inactive: 4.33%; under `COc1ccc(NC2CCN(C(=O)OC(C)(C)C)CC2)cc1`, inactive: -16.1%. Under `O=[N+]([O-])c1cc([N+](=O)[O-])c(NCC2CCS(=O)(=O)C2)c([N+](=O)[O-])c1` (stereo not given) stands inactive: 9.82%; under `O=C(NCC1(N2CCCCC2)CCCCC1)c1cccc(C(F)(F)F)c1`, inactive: 9.72%. For the compound `CCN1CCC(Nc2ccc(Cl)cc2)CC1`, the activity change, negative = inhibition is inactive: 7.7%. On to `N#CC1(Nc2ccccc2)CCN(CCc2ccccc2)CC1`, for which the activity change, negative = inhibition is inactive: 10.1%. Under `O=c1[nH]c2ccccc2n1C1CCN(C(c2ccccc2OC(F)(F)F)c2nnnn2C2CCCC2)CC1` (stereo not given) stands inactive: -17%; under `O=C(NCC1(N2CCCCC2)CCCCC1)c1cccc([N+](=O)[O-])c1`, inactive: 7.93%. With `CSc1ccc(C(=O)NCC2(N3CCOCC3)CCCCC2)cc1` the figure was inactive: -2.11%; with `CC(C)(C)n1nnnc1C(c1ccccc1OC(F)(F)F)N1CCC(n2c(=O)[nH]c3ccccc32)CC1` (stereo not given), inactive: -21.4%. Under `O=C(NCC1(N2CCCCC2)CCCCC1)c1ccc(OC(F)F)cc1` stands inactive: 2.6%; under `COc1cc(C(=O)NCC2(N(C)C)CCCCC2)ccc1OC(F)F`, inactive: 1.45%. On to `CCOC(=O)N1CCC(Nc2cccc(C)c2)CC1`, for which the activity change, negative = inhibition was inactive: -7.81%. With `O=c1[nH]c2ccccc2n1C1CCN(C(c2cccc3ccccc23)c2nnnn2C2CCCC2)CC1` (stereo not given) the figure was inactive: -0.978%; with `O=c1[nH]c2ccccc2n1C1CCN(C(c2ccccc2)c2nnnn2C2CCCCC2)CC1` (stereo not given), inactive: -14.3%; with `O=C(NCC1(N2CCCCC2)CCCCC1)c1ccc(F)cc1`, inactive: 7.55%.
